{
  "sequences": {"note": "By UniProt entry, the sequences of proteins in these tests, tags left out. Residues count along the entry.", "UniProt P10721, 26-976": "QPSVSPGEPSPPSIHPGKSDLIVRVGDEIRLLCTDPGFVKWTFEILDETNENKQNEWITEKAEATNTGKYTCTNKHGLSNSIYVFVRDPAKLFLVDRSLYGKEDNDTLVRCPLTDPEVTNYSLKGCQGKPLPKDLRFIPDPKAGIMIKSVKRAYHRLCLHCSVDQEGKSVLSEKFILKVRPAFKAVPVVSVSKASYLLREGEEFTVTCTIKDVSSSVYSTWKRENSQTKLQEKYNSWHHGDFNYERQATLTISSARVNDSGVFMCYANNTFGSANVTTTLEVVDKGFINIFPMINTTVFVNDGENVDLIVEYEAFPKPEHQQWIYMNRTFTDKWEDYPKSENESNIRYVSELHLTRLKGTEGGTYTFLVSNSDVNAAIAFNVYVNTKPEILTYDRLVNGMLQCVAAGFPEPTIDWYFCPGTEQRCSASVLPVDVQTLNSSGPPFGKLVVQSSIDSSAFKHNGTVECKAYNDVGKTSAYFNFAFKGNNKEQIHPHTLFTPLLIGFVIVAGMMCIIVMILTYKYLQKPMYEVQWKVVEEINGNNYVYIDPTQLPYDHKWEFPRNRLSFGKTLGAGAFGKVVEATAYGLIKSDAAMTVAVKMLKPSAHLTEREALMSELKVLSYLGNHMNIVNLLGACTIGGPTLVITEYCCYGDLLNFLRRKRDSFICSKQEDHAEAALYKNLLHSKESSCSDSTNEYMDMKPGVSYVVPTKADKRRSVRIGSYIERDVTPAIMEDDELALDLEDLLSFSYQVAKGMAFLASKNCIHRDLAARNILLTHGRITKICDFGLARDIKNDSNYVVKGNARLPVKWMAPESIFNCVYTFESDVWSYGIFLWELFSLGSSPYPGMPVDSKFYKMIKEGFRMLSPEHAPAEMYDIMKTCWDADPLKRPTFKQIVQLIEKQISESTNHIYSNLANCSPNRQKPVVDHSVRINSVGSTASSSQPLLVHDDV", "UniProt P09619, 33-1106": "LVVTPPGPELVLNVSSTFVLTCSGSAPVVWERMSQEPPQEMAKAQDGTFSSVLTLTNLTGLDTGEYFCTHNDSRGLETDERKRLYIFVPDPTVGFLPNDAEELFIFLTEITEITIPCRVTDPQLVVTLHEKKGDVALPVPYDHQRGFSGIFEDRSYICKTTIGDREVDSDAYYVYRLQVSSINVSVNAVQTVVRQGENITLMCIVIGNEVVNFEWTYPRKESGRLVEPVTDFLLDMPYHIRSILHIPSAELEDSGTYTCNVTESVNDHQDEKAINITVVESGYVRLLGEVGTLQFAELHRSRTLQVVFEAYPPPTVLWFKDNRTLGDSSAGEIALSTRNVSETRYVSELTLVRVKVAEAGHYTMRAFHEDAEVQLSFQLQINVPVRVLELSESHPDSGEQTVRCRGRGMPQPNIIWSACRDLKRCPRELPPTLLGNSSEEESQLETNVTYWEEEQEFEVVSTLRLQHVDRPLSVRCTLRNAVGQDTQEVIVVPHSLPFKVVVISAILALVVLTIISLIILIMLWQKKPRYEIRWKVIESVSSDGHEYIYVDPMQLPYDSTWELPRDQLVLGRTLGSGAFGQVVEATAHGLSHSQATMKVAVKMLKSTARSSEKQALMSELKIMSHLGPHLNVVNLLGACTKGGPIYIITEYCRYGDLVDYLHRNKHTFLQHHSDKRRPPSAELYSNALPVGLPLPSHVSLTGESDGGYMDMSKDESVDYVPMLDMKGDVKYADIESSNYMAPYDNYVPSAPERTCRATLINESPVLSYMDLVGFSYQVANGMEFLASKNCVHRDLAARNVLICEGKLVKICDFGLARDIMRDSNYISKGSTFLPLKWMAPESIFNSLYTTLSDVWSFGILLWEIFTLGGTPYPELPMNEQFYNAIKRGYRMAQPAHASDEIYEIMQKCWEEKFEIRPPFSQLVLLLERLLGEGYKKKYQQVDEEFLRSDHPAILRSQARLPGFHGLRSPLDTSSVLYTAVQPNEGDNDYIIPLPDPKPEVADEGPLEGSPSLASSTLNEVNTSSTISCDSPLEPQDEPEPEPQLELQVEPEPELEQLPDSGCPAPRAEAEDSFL"},
  "source": "patent US20100135983A1",
  "about": "“Anti-inflammatory compositions and methods” (Searete LLC, a limited liability corporation of the State …, priority 2008, published 2010)",
  "origin": "cited, not measured here",
  "key": {"[1]": {"molecular_target": "c-Kit (Homo sapiens, UniProt P10721)", "conditions": "at nanomolar concentrations"}, "[2]": {"molecular_target": "PDGFRβ (Homo sapiens, UniProt P09619)", "conditions": "at nanomolar concentrations"}},
  "data": [
    {"smiles": "Cc1nc(Nc2ncc(C(=O)Nc3c(C)cccc3Cl)s2)cc(N2CCN(CCO)CC2)n1.O", "note": "[dasatinib, N-(2-chloro-6-methylphenyl)-2-[[6-[4-(2-hydroxyethyl)-1-piperazinyl]-2-methyl-4-pyrimidinyl]amino]-5-thiazolecarboxamide, monohydrate]", "values": [
      {"measurement": "inhibition of c-Kit", "setting": "[1]", "result": "inhibits"},
      {"measurement": "inhibition of PDGFRβ", "setting": "[2]", "result": "inhibits"}
    ]}
  ]
}
